Numbering of substitutions follows the chain as printed.
Columns and labels:
GlyT2 I292C mutant = target: T1, GlyT2 I292C mutant (Rattus norvegicus, UniProt P58295, I292C); assay: [3H]glycine transport by GlyT2 mutant in COS7 cells; type: cell-based
T1 construct: expressed in transfected cells; host or cells: COS7
T1 sequence (P58295 1-799 I292C): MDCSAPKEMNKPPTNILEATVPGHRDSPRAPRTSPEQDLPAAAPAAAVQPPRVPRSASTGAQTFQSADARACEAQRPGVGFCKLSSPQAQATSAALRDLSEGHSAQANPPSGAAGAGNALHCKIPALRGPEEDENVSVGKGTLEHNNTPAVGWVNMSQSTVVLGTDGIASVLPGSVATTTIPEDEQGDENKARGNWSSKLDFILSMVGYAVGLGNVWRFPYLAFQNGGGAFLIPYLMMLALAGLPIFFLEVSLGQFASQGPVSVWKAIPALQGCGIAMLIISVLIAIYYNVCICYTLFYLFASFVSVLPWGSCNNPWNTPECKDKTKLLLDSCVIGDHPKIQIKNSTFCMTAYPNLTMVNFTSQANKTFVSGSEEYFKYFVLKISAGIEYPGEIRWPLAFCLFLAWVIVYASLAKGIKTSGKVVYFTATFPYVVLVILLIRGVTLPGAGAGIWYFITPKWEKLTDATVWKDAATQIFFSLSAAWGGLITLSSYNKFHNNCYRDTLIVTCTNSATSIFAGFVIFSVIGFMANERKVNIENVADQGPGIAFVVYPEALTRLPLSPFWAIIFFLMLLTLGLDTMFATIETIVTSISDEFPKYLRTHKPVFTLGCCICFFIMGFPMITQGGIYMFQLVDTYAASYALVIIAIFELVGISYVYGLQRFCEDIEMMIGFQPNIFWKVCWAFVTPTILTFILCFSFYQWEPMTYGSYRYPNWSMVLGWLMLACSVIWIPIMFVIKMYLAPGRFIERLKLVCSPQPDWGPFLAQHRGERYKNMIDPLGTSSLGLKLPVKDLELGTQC
Description: To validate the predicted interactions between the inhibitors and GlyT2, we used systematic site-directed mutagenesis to construct substitution mutants of the potential residues involved in ligand binding. […] The GlyT2 residues predicted to interact with the inhibitors through its side chain were replaced by amino acids expected to force the loss of the interaction. In the cases where the interaction occurred through the backbone, the inserted amino acid sought to alter the disposition of the substituted residue to lose the coordination. […] Most of the mutants were active, although depicted lower activity as compared to the wild-type. […] These two residues are preserved throughout the NSS family, and Tyr-289 has proven to have an important structural role in stabilizing the unwound portion of the TM1 helix, whereas Tyr-209 has a key role in S1 site formation through its interaction with Ser-481.[25],[30],[33] Other residues such as Leu-213 or Ser-479 are involved in the formation of the glycine-binding site and Na^+-binding site, respectively.
(§1) Substitution mutants were generated with the QuikChange II Site-Directed Mutagenesis kit (Agilent Technologies, Santa Clara, CA, USA), using rGlyT2 or rGlyT1 subcloned in pCDNA3.[47] The complete coding region of all of the constructs was sequenced to verify that only the desired mutation had been introduced. Plasmids from two independent Escherichia coli colonies were expressed in eukaryotic cells as indicated below, and [^3H]glycine transport and/or immunodetection was performed for verification. COS7 cells were grown and transfected using Turbofect Transfection Reagent (Thermo Fisher Scientific, Waltham, MA, USA), following the manufacturer’s protocol (2 μL reagent/μg of DNA). Cells were incubated for 48 h at 37 °C until used.
COS7 cells were washed and incubated at 37 °C in HEPES-buffered saline (HBS, in mM: 150 NaCl, 10 HEPES-Tris, pH 7.4, 1 CaCl2, 5 KCl, 1 MgSO4, 10 glucose) containing 2 μCi/mL [2-^3H]glycine (1.6 TBq/mmol; PerkinElmer Life Sciences), at 10 μM final glycine concentration if not otherwise stated.[48] At the end of the desired time (usually 10 min), reactions were washed and terminated by aspiration. Protein concentration (Bradford) and [2-^3H]glycine levels (liquid scintillation, LKB 1219 Rackbeta) were determined. Glycine accumulation measured in mock-transfected cells was subtracted from that of the transporter-transfected cells and normalized by the protein concentration. Kinetic analyses were performed by varying glycine concentration in the uptake medium between 0.5 and 500 μM. […] The determinations of the IC50 were performed initially by diluting compounds by log steps with the vehicle from 1 nM to 1 μM. Then, exact IC50 values were determined by means of 8-point concentration curves performed over a suitable range using half log dilutions with the vehicle. A nonlinear curve fitting method was used to obtain IC50 values using Graphpad Prism software, version 6.0, Graphpad, San Diego, CA, USA.

GlyT2 = target: T2, GlyT2 (Rattus norvegicus, UniProt P58295); assay: [3H]glycine transport by recombinant GlyT2 expressed in COS7 cells; type: cell-based; conditions: wtGlyT2
T2 construct: expressed in transfected cells; host or cells: COS7
T2 sequence (P58295 1-799): T1 sequence (P58295 1-799 I292C) with C292I
Method: as §1, with “Plasmids from two independent Escherichia coli colonies were expressed in eukaryotic cells as indicated below, and [^3H]glycine transport and/or immunodetection was performed for verification.” left out
At the end of the desired time (usually 10 min), reactions were washed and terminated by aspiration. […] A nonlinear curve fitting method was used to obtain IC50 values using Graphpad Prism software, version 6.0, Graphpad, San Diego, CA, USA.

Q: For `NCC(=O)O` [Gly, glycine], which EC50 (GlyT2 I292C mutant) is on record?
A: 176 ± 15 µM

Q: And the EC50 (GlyT2)?
A: 120 ± 26 µM
